Reference: US5064637A, “Substituted sulfonamide derivatives which inhibit allergic reactions” (Board of Regents, The University of Texas System, priority 1989, dated 1991)

Key:
Ig to SMX = assay: Hapten inhibition of Ig binding to SMX-HSA (RAST for IgE, ELISA for IgG, IgA, IgM); parameters: species or system human; settings: free inhibitor; specificity check
IgG to SMX = assay: Example 2: hapten inhibition of IgG binding, ELISA, no preincubation; parameters: species or system human; settings: final serum dilution 1:80
Procedure: The assay was set up using a 96 well microtiter plate. None of the serum samples were preincubated with inhibitor. Serum used was positive (+) for IgG to SMX, and was used at a final dilution of […] for all wells.
A variety of binding inhibitors were employed at varying concentrations.
A 50 microliter volume of each numerically designated inhibitor was added each well of the plate. A 50 microliter volume of serum (1:40 dilution) positive to IgG to SMX was then added to each well. The final dilution of serum in each was then 1:80.
The microtiter plate was then shaken slightly to mix the contents of each well and then the standard ELISA assay was performed. The plate was then allowed to incubate for 2 hours at room temperature. The plates were then washed and the OD readings taken for each well.
Percent inhibition was then calculated for each sample on the basis of decrease in OD.

Row | inhibition of antibody binding to SMX-HSA (in words) (Ig to SMX) | % Inhibition (IgG to SMX; inhibitor 0.1 mg/ml) | % Inhibition (IgG to SMX; inhibitor 0.3 mg/ml) | % Inhibition (IgG to SMX; inhibitor 1 mg/ml) | % Inhibition (IgG to SMX; inhibitor 3 mg/ml) | % Inhibition (IgG to SMX; inhibitor 10 mg/ml) | Substance
1 | not | – | – | – | – | – | Human serum albumin [HSA, reference compound]
2 | inhibition of binding | 53% | 54% | 54% | 55% | 59% | N^4 -sulfamethoxazoyl-human serum albumin [SMX-HSA]

Row | Substance | inhibition of antibody binding to SMX-HSA (in words) (Ig to SMX) | % Inhibition (IgG to SMX; inhibitor 0.1 mg/ml) | % Inhibition (IgG to SMX; inhibitor 0.3 mg/ml) | % Inhibition (IgG to SMX; inhibitor 1 mg/ml) | % Inhibition (IgG to SMX; inhibitor 3 mg/ml) | % Inhibition (IgG to SMX; inhibitor 10 mg/ml)
3 | penicilloyl-HSA [BPO-HSA, reference compound] | not | – | – | – | – | –
